Literature values as cited in patent publication US4762846A (priority 1986, dated 1988).

What was measured:
muscarinic receptors = conditions: in vitro, Rafferty, et al; cited from earlier work
[1] = test system: benzodiazepine receptors ([3H]diazepam site); conditions: in vitro, Rafferty, et al; cited from earlier work

For S=C=Nc1cccc(C2(N3CCCCC3)CCCCC2)c1 [Metaphit, 1-[1-(3-isothiocyanatophenyl)cyclohexyl]piperidine], which “acylation of muscarinic receptors” value (muscarinic receptors) is on record?
Its value is “not to acylate opioid, muscarinic”.

What about the “acylation of benzodiazepine receptors” value [1] of the same compound?
The value was “not to acylate opioid, muscarinic, or benzodiazepine receptors”.
